Conditions: single 5 mg peribulbar injection; assuming a vitreous volume of 4-5 ml

vitreous concentration: 0.10 to 0.13 µM
SMILES: C[C@@H]1C[C@H]2[C@@H]3CCC4=CC(=O)C=C[C@]4(C)[C@@]3(F)[C@@H](O)C[C@]2(C)[C@@]1(O)C(=O)CO [Dexamethasone]
